## scFv variants of Ab-91 (heavy chain) against a SARS-CoV-2 spike peptide

Antigen: PDVDLGDISGINAS, a 14-residue peptide of the SARS-CoV-2 spike HR2 region.

The variants keep the light chain, the linker and the frameworks of Ab-91 (scFv order VL, three GGGGS repeats, VH).
VL: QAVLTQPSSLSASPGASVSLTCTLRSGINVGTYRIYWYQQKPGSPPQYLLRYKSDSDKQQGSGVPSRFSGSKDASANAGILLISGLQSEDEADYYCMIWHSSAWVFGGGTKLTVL
VH: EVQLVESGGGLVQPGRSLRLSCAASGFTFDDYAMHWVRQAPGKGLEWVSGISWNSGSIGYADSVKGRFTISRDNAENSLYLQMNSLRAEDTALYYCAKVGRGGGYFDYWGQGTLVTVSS

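Variants in AAYL51 differ from the parent at up to three CDR positions; double and triple changes were sampled at random. AlphaSeq pools MATa yeast showing the antibodies with MATalpha yeast showing the peptide. Binding brings cells together so that they mate, and sequencing counts the barcode pairs among the diploids. A regression on co-assayed BCL2-family reference pairs converts the normalised counts of each replicate to an apparent Kd. Mating was done three times.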

The parent's heavy chain CDRs are GFTFDDYAMH, GISWNSGSIGYADSVK, VGRGGGYFDY; each variant's own CDRs replace them letter for letter.
Scale: log10 of Kd in nM, estimated from mating counts; low values are strong binders.
A mean of the replicates is given; it leaves out those without a signal.
A pair that was not seen in any replicate is written "not detected"; this usually means weak binding, but a binder can also be missed.
Parent in this assay: reference entry 1.86, copy in this library 0.88.
Three control strains display no target. For library AAYL51, 21% of the pairings with them gave a signal, with a median of 4.54 and one signal in twenty below 3.26, so weak values seen in few replicates may be background. Also given: how often the same scFv was detected with the empty control strains.

| CDR-H1 | CDR-H2 | CDR-H3 | log10 Kd (nM), mean | seen in | control signals |
|---|---|---|---|---|---|
| GFTFDDYAVH | GISWNSGSIGYADSVK | VGTGGGSFDY | 4.43 | 2/3 | 8/9 |
| GFTGDDYAMH | GISWNSGSSGYADSVK | VGRGGGYFDY | 3.56 | 1/3 | 1/9 |
| GFTTDDYAMS | GISWNSGNIGYADSVK | VGRGGGYFDY | 4.76 | 1/3 | 3/9 |
| GFTFDDYAMH | GISWNSGSIGYADSVY | MGRGGGYFDY | not detected | 0/3 | 0/9 |
| GFTFDMYAMM | GISWNSGSIGYADSVK | VHRGGGYFDY | not detected | 0/3 | 0/9 |
| GGTFDDYAMH | GIIWNSGSIGYADCVK | VGRGGGYFDY | not detected | 0/3 | 0/9 |
| GFTCDDYAMH | GISWNSGSIGYADSNK | VGRGYGYFDY | not detected | 0/3 | 1/9 |
| AFTQDDYAMH | GISWNSGSISYADSVK | VGRGGGYFDY | 3.78 | 1/3 | 6/9 |
| GFTFDDTAMH | GISWNSGSLGYADSVF | VGRGGGYFDY | 3.28 | 3/3 | 4/9 |
| GFTFDDYAMH | GISWNSTSIGYADSVK | VGRGGGYGMY | not detected | 0/3 | 0/9 |
| WFTFDDYAMH | GLSWNSGSIGYADSVY | VGRGGGYFDY | 4.55 | 2/3 | 0/9 |
| GFTFDDYAMH | GISWNSGSIGYADWAK | VGRGGGYFCY | 4.71 | 1/3 | 1/9 |
| GFTFDDYAMH | GISHNSGSVGYADSVS | VGRGGGYFDY | 2.41 | 3/3 | 2/9 |
| GFTFDDYAMH | GISWNSGSIEYADSIK | VGRGGGYFDL | 2.60 | 3/3 | 6/9 |
| GFTFDDYAHH | DISCNSGSIGYADSVK | VGRGGGYFDY | not detected | 0/3 | 0/9 |
| GFTFDDYAMM | GISWNSGLIGYADPVK | VGRGGGYFDY | not detected | 0/3 | 1/9 |
| GFTFDDYAMH | GISWNSGSIGYADWVK | VGCGGGYFCY | 5.07 | 1/3 | 0/9 |
| GFTFDDSAMH | RISMNSGSIGYADSVK | VGRGGGYFDY | not detected | 0/3 | 1/9 |
| GFWFDDYAMH | GISWNSGSQGYADSVM | VGRGGGYFDY | not detected | 0/3 | 1/9 |
| GFPCDDYAMH | GISWNSGSIGWADSVK | VGRGGGYFDY | 4.38 | 1/3 | 1/9 |
| GFTFDWYAMH | GIWWNSGSIGYAMSVK | VGRGGGYFDY | not detected | 0/3 | 2/9 |
| GPTFDDYAMH | GISWNSGSIGYADWVK | VGGGGGYFDY | not detected | 0/3 | 0/9 |
| GFTFDDYAMH | GISWNSGSIIYGDSVK | VGRGGGYFDW | 3.04 | 1/3 | 2/9 |
| GFTFSDYAAH | GISWNSGSIGYADSVK | PGRGGGYFDY | 1.60 | 3/3 | 3/9 |
| GFLFDDYAMH | GISWNSVSIGYADGVK | VGRGGGYFDY | 4.59 | 1/3 | 4/9 |
| GFQFDDYKMH | GISWNSGSIGYADSVK | VGRGGGYFNY | 4.95 | 2/3 | 3/9 |
| GFTFDDYAMH | EISWNSGSIGYADSVK | VGRGIPYFDY | not detected | 0/3 | 1/9 |
| GFTCYDYAMH | GISWNSGSSGYADSVK | VGRGGGYFDY | 2.05 | 3/3 | 0/9 |
| GFTFDDYAPH | GISWNSGSIGYADSVK | VGRYGGYWDY | not detected | 0/3 | 1/9 |
| GFTFDDYAMH | GISNNSGSIGEADSVK | VGTGGGYFDY | 4.06 | 2/3 | 2/9 |
| GFNFDDYAMH | GISWNSGGIGYATSVK | VGRGGGYFDY | 5.58 | 1/3 | 1/9 |
| GFTPDDYAMH | GISWMSGSSGYADSVK | VGRGGGYFDY | not detected | 0/3 | 2/9 |
| GFTFDDYAMH | GISWNSYSIGYADSVS | VGRGGGYFDY | not detected | 0/3 | 0/9 |
| GFTFDDYAMH | GISWNSGDIGYADSVK | VGRGPGYFRY | 3.68 | 1/3 | 0/9 |
| GFTFDDGAMH | GISWNSGSIGYADSVE | VPRGGGYFDY | 4.75 | 1/3 | 4/9 |
| GFTFDDYASH | GISWNSGIIGIADSVK | VGRGGGYFDY | not detected | 0/3 | 1/9 |
| GFTFDDYAMH | GWSWNSGSIGYDTSVK | VGRGGGYFDY | 5.63 | 1/3 | 1/9 |
| GFTFDDIAMH | GISVNSGSIGYADSVK | VGRGGGYFDY | not detected | 0/3 | 0/9 |
| GFTFDDYAMH | GIKWNSGSIIYADSVK | VGRGGGCFDY | 4.84 | 2/3 | 8/9 |
| GFTFDDYAMH | GISWASGCIGYADSGK | VGRGGGYFDY | 4.96 | 3/3 | 4/9 |
| GFTFDDYAMH | GISWNSGSIGYADSRK | VGRGKGYSDY | 3.18 | 1/3 | 1/9 |
| GFTFNDYAMH | KISWPSGSIGYADSVK | VGRGGGYFDY | not detected | 0/3 | 2/9 |
| GLTFDDKAMH | GISTNSGSIGYADSVK | VGRGGGYFDY | not detected | 0/3 | 0/9 |
| GFTFDDYAMH | GISWNSGSIGYACVVK | VGRGGGRFDY | 4.41 | 1/3 | 2/9 |
| GFTFDDYAMH | GIGWNSGSIGYADSVK | VGRGGIYFVY | 1.16 | 3/3 | 2/9 |
| GFTFDDYAMH | NIIWNSGSIMYADSVK | VGRGGGYFDY | 3.29 | 1/3 | 1/9 |
| GFTFDDYAMH | RISWNSGSIGNADSVK | VGRGGGGFDY | not detected | 0/3 | 3/9 |
| GFTFDDYAMS | GISWNSGSIGYADSVK | SGRGGGYFDT | not detected | 0/3 | 0/9 |
| GFTFDDYAMH | AISWNSGSDGYADSVK | VGWGGGYFDY | 4.52 | 1/3 | 2/9 |

The last 8 entries again:

CDR-H1,CDR-H2,CDR-H3,"log10 Kd (nM), mean",seen in,control signals
GFTFNDYAMH,KISWPSGSIGYADSVK,VGRGGGYFDY,not detected,0/3,2/9
GLTFDDKAMH,GISTNSGSIGYADSVK,VGRGGGYFDY,not detected,0/3,0/9
GFTFDDYAMH,GISWNSGSIGYACVVK,VGRGGGRFDY,4.41,1/3,2/9
GFTFDDYAMH,GIGWNSGSIGYADSVK,VGRGGIYFVY,1.16,3/3,2/9
GFTFDDYAMH,NIIWNSGSIMYADSVK,VGRGGGYFDY,3.29,1/3,1/9
GFTFDDYAMH,RISWNSGSIGNADSVK,VGRGGGGFDY,not detected,0/3,3/9
GFTFDDYAMS,GISWNSGSIGYADSVK,SGRGGGYFDT,not detected,0/3,0/9
GFTFDDYAMH,AISWNSGSDGYADSVK,VGWGGGYFDY,4.52,1/3,2/9

Source: Engelhart et al. 2022 (doi:10.1038/s41597-022-01779-4), MIT Lincoln Laboratory and A-Alpha Bio; data file from the FLAb repository.